Measurements published in patent publication US20210061861A1, “D-PEPTIDIC COMPOUNDS FOR VEGF” (Reflexion Pharmaceuticals, Inc., priority 2019, published 2021).

Amino acid sequences for entries named in this document (tags omitted). Residues count along the entry.
UniProt P15692, 214-315: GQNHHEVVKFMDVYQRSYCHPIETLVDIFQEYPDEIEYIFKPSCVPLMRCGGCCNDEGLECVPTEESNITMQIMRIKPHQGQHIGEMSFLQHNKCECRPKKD

What was measured:
[1] = melting and refolding curves; assay type: physicochemical; details: FIG. 16
Method: The melting temperature was determined to be approximately 50° C.

VEGF-A = VEGF-A (Homo sapiens, UniProt P15692); assay: SPR binding of D-peptidic compounds to L-VEGF-A; parameters: Biotinylated VEGF-A(8-109) was immobilized on a biotin CAPture chip; details: read-out: VEGF Binding Affinity (KD); Table 4, D-peptidic Z and GA domains

Row | Substance | melting temperature [1] | Kd (VEGF-A) [nM]
1 | tidqwllknakedaiaelkkcGitephvisfinhapyvshvnGlkanilkaha [Compound 1.1.1] | approximately 50 °C | 
2 | vdnkfnkewdnawreirhlpnlnieqkrafihslyddpsqsanllaeakklndaqapk [Compound 980175] |  | 110
3 | vdnkfnkewdnawreirhlpnlnveqkrafikslyddpsqsanllaeakklndaqapk [Compound 980180] |  | 120
